The values that follow are results of earlier work, collected in US10004748B2, “Methods of treating PR-positive, luminal A breast cancer with PI3K inhibitor, pictilisib” (Genentech, Inc., priority 2014, dated 2018).

Sequences of proteins named here, by UniProt entry; tags and fusion partners are left off.
UniProt P03372, whole entry: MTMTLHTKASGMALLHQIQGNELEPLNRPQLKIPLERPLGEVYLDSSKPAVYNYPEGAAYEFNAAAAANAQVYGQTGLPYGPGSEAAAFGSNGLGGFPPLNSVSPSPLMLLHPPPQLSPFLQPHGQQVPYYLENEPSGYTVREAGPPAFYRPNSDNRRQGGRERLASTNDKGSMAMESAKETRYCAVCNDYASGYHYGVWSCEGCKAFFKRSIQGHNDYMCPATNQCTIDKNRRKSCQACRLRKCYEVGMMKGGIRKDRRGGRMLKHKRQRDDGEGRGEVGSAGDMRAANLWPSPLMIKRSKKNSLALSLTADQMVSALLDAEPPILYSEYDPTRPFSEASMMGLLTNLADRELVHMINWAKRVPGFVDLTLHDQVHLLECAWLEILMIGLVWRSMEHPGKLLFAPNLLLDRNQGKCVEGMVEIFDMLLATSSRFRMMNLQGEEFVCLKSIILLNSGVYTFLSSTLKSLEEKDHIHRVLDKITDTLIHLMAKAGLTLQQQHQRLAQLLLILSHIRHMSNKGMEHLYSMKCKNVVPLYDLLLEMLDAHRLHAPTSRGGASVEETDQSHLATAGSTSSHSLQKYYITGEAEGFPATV

This data set addresses ER (Homo sapiens, UniProt P03372). Particulars: greater than that of tamoxifen (Howell et al. 2000); cited from earlier work.

Take `C[C@]12CC[C@@H]3c4ccc(O)cc4C[C@@H](CCCCCCCCC[S+]([O-])CCCC(F)(F)C(F)(F)F)[C@H]3[C@@H]1CC[C@@H]2O` (stereo partly drawn) [fulvestrant, (7α,17β)-7-{9-[(4,4,5,5,5-pentafluoropentyl)sulfinyl]nonyl}estra-1,3,5(10)-triene-3,17-diol, reference compound]: the “affinity for the ER relative to tamoxifen” value was “approximately 100 fold”.
